In PubChem BioAssay AID588352 (The Scripps Research Institute Molecular Screening Center, 2011):
Only a part is listed here, and it is no random draw. Activity calls are given as the source filed them.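 Rule for the calls: active = inhibition above a per-campaign cutoff, the mean of all compounds plus 3 SD (cut at about 60% in these data); inactive = the rest.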

Protein sequences, listed by entry. Tags and fused reporters are not part of them.
UniProt Q9Y6Q9, whole entry: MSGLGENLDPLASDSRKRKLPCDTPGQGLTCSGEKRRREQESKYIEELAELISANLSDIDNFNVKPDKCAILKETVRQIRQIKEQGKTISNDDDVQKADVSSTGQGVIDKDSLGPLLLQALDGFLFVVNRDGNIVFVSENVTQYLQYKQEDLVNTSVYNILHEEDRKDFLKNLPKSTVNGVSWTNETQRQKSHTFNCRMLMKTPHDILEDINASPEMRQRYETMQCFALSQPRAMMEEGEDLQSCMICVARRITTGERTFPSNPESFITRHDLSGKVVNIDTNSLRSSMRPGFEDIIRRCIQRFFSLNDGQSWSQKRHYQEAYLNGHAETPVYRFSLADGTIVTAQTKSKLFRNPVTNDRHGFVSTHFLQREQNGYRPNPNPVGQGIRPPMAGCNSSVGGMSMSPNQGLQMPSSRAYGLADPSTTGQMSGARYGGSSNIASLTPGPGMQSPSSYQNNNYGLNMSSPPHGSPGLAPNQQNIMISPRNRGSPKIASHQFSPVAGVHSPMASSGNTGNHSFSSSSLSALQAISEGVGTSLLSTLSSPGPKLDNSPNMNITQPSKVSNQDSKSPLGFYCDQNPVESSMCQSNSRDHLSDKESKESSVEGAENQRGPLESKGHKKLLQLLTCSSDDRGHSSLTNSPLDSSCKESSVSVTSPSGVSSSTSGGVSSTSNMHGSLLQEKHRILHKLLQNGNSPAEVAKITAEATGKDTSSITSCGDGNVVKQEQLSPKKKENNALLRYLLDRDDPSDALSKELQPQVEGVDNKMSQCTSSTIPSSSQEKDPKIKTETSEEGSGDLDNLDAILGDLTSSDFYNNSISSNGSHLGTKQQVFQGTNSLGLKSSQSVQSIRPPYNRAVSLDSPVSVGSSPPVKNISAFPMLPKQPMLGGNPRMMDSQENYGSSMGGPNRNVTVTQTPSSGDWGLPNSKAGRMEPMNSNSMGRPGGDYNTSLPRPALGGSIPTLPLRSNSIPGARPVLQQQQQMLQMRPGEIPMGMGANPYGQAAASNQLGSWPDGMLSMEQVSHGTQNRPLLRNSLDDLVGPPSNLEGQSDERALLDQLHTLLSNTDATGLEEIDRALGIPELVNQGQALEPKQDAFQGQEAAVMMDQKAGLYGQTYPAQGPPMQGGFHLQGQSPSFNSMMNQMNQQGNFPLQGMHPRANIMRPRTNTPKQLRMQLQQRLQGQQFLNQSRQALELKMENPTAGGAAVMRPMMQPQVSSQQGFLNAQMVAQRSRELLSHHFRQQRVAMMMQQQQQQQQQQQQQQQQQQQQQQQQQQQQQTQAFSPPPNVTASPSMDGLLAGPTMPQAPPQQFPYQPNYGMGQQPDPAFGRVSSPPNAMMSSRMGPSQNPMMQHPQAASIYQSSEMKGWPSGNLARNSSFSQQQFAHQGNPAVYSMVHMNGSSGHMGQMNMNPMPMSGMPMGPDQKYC

Molecular target: Nuclear receptor coactivator 3 (Homo sapiens) (UniProt Q9Y6Q9)
Test: SRC3 coactivator transcriptional activity inhibitors, primary screen, cell-based, luminescence (AID 588352);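 note: 0% = DMSO-treated cells and 100% = gossypol-treated cells at 36 µM; higher means less SRC3-driven luciferase light from the GAL4 reporter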
Details: HEK293 GAL4-SRC3 luciferase reporter, at 3.6 µM, active compounds read high

Compound | inhibition
CCC(=O)N(c1ccccc1)C1(COC)CCN(CCc2cccs2)CC1 | inactive: 7.23%
CCC(=O)N(c1ccccc1)C1(COC)CCN(CCn2nnn(CC)c2=O)CC1 | inactive: -16.6%
